From publication PMC3674922, “Single-molecule photobleaching reveals increased MET receptor dimerization upon ligand binding in intact cells” (BMC Biophysics, 2013)

Target: the molecule itself
Assay: single-molecule photobleaching and intensity analysis (TIRF); uninduced (resting) HeLa cells: fixed with 4% formaldehyde before 10 nM InlB-ATTO647N in PBS, 1 h at 4°C; MET detected through the bound labelled ligand; fractional labelling

B1: endogenous MET receptor on HeLa cells (receptor, human (endogenous in HeLa), UniProt P08581 25-1390, looked up)
chain: ECKEALAKSEMNVNMKYQLPNFTAETPIQNVILHEHHIFLGATNYIYVLNEEDLQKVAEYKTGPVLEHPDCFPCQDCSSKANLSGGVWKDNINMALVVDTYYDDQLISCGSVNRGTCQRHVFPHNHTADIQSEVHCIFSPQIEEPSQCPDCVVSALGAKVLSSVKDRFINFFVGNTINSSYFPDHPLHSISVRRLKETKDGFMFLTDQSYIDVLPEFRDSYPIKYVHAFESNNFIYFLTVQRETLDAQTFHTRIIRFCSINSGLHSYMEMPLECILTEKRKKRSTKKEVFNILQAAYVSKPGAQLARQIGASLNDDILFGVFAQSKPDSAEPMDRSAMCAFPIKYVNDFFNKIVNKNNVRCLQHFYGPNHEHCFNRTLLRNSSGCEARRDEYRTEFTTALQRVDLFMGQFSEVLLTSISTFIKGDLTIANLGTSEGRFMQVVVSRSGPSTPHVNFLLDSHPVSPEVIVEHTLNQNGYTLVITGKKITKIPLNGLGCRHFQSCSQCLSAPPFVQCGWCHDKCVRSEECLSGTWTQQICLPAIYKVFPNSAPLEGGTRLTICGWDFGFRRNNKFDLKKTRVLLGNESCTLTLSESTMNTLKCTVGPAMNKHFNMSIIISNGHGTTQYSTFSYVDPVITSISPKYGPMAGGTLLTLTGNYLNSGNSRHISIGGKTCTLKSVSNSILECYTPAQTISTEFAVKLKIDLANRETSIFSYREDPIVYEIHPTKSFISGGSTITGVGKNLNSVSVPRMVINVHEAGRNFTVACQHRSNSEIICCTTPSLQQLNLQLPLKTKAFFMLDGILSKYFDLIYVHNPVFKPFEKPVMISMGNENVLEIKGNDIDPEAVKGEVLKVGNKSCENIHLHSEAVLCTVPNDLLKLNSELNIEWKQAISSTVLGKVIVQPDQNFTGLIAGVVSISTALLLLLGFFLWLKKRKQIKDLGSELVRYDARVHTPHLDRLVSARSVSPTTEMVSNESVDYRATFPEDQFPNSSQNGSCRQVQYPLTDMSPILTSGDSDISSPLLQNTVHIDLSALNPELVQAVQHVVIGPSSLIVHFNEVIGRGHFGCVYHGTLLDNDGKKIHCAVKSLNRITDIGEVSQFLTEGIIMKDFSHPNVLSLLGICLRSEGSPLVVLPYMKHGDLRNFIRNETHNPTVKDLIGFGLQVAKGMKYLASKKFVHRDLAARNCMLDEKFTVKVADFGLARDMYDKEYYSVHNKTGAKLPVKWMALESLQTQKFTTKSDVWSFGVLLWELMTRGAPPYPDVNTFDITVYLLQGRRLLQPEYCPDPLYEVMLKCWHPKAEMRPSFSELVSRISAIFSTFIGEHYVHVNATYVNVKCVAPYPSLLSSEDNADDEVDTRPASFWETS
notes: MET receptor tyrosine kinase, endogenous on the membrane of HeLa cells; also called MET receptor tyrosine kinase; source: endogenous, on intact serum-starved HeLa cells
- stoichiometry N: 2
